PubChem BioAssay
The list shows a part of the results, in another mix than the full data. The source made the active and inactive calls.

Sequences of proteins named here, by UniProt entry; tags and fusion partners are left off. A change or cut given only in a name is not applied to a line headed by its entry.
UniProt P02866, whole entry, looked up: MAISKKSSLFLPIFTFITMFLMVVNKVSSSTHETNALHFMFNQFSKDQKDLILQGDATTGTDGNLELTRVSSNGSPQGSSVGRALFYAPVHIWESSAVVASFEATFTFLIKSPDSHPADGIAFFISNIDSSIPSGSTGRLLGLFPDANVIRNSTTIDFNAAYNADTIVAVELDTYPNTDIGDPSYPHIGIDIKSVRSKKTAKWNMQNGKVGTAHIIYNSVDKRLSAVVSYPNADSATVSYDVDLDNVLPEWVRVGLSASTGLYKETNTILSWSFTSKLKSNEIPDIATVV
UniProt Q05397, whole entry, looked up: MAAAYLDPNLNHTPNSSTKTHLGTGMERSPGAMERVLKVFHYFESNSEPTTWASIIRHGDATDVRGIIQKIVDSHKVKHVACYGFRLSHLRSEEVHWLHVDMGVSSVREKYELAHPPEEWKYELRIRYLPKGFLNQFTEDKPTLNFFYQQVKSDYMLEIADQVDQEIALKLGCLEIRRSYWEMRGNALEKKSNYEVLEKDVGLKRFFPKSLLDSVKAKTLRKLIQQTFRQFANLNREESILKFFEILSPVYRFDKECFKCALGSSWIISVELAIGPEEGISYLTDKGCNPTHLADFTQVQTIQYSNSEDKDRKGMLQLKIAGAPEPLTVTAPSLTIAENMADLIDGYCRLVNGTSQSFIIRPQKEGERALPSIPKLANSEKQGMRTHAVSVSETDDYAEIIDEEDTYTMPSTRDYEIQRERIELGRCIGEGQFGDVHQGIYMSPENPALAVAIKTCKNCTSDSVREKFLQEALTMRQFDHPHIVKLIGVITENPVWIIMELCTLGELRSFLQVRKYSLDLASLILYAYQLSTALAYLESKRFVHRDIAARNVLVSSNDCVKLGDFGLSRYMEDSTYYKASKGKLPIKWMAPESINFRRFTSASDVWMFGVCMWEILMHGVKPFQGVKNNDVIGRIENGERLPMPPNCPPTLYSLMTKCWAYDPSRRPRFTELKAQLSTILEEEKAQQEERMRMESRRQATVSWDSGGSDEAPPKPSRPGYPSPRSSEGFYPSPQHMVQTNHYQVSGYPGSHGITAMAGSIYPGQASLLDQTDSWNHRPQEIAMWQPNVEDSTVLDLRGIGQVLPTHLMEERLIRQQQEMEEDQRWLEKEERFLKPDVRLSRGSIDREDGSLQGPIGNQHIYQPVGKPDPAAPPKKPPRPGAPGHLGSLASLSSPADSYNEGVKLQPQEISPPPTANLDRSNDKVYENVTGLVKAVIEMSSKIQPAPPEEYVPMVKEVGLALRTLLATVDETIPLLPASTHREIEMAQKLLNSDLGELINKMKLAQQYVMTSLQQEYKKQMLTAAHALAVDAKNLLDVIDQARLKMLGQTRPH
UniProt P19883: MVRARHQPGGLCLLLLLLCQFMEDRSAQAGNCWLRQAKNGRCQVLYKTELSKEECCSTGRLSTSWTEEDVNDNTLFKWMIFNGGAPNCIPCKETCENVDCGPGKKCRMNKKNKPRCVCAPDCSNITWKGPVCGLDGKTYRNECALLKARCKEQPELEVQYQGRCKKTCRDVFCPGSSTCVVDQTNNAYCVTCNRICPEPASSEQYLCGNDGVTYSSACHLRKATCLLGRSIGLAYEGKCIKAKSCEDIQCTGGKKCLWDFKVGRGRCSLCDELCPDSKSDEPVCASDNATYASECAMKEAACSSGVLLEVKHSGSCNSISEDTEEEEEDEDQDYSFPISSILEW
UniProt P09038, whole entry, looked up: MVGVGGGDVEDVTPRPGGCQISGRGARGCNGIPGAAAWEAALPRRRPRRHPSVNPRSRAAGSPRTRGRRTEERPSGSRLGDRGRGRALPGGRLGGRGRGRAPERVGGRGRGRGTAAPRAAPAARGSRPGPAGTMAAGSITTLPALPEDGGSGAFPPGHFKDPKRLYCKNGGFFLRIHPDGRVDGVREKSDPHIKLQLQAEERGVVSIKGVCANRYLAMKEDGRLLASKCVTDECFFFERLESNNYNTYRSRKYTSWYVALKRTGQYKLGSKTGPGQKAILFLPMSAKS
UniProt P22629, whole entry, looked up: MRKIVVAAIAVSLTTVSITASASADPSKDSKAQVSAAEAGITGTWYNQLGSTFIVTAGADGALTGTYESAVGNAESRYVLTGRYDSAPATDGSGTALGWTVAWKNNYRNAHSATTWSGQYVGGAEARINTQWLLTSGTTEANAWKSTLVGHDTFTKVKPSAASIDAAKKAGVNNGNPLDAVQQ
UniProt O14656: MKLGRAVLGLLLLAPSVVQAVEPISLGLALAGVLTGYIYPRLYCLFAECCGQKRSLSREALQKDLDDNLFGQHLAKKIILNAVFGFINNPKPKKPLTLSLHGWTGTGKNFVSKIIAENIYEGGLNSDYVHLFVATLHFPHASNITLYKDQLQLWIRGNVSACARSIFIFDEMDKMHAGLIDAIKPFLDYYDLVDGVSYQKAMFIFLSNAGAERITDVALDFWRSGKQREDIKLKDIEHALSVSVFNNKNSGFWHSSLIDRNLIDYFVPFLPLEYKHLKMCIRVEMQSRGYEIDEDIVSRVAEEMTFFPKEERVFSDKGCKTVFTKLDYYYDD

What was measured:
[1] = compound binding in COS7 lysate, probe aLAP1, primary screen, cell lysate, small-molecule microarray (AID 1124); details: probe aLAP1, fluorescence, higher = more signal;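 further: lysate comes from COS7 cells expressing LAP1 and is applied at 0.3 µg/mL; score merges spot fluorescence near 667 nm with signal-to-noise over triplicate slides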
[2] = tested on: Sam68 (KHDRBS1); experiment: Sam68 small-molecule binders, primary screen, biochemical, small-molecule microarray, 635 nm fluorescence (AID 1125); details: small-molecule microarray binding, higher = more signal;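 further: score merges 667 nm channel intensity with signal to noise over triplicate slides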
[3] = tested on: Chordin-like protein 2 (CHRDL2); experiment: CHRDL2 small-molecule binders, primary screen, biochemical, small-molecule microarray, 635 nm fluorescence (AID 1126); details: small-molecule microarray binding, fluorescence 635 nm; higher = more signal;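 further: printed compound slides probed with Chrdl2 protein at 4 µg/mL for 1 h at 4 C; score merges 667 nm emission intensity with signal to noise over three replicate slides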
[4] = target: Concanavalin-A (Canavalia ensiformis) (UniProt P02866); experiment: ConA small-molecule binders, primary screen, artefact control for SMM control protein annotation, biochemical, small-molecule microarray, Alexa647 label, 635 nm (AID 1127); details: ConA-A647 binding fluorescence, higher = more signal;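 further: z combines 667 nm emission intensity with signal-to-noise across three replicate slides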
[5] = anti-His antibody binders, primary screen, artefact control for SMM control protein annotation, biochemical, small-molecule microarray, 635 nm fluorescence (AID 1128); details: anti-His Alexa647 antibody binding, higher = more signal;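 further: score merges feature fluorescence with signal-to-noise for each printed compound spot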
[6] = target: Focal adhesion kinase 1 (Homo sapiens) (UniProt Q05397); experiment: small-molecule microarray binders of FAK, primary screen, biochemical, 635/667 nm fluorescence, BSA, DTT (AID 1130); details: PTK2 binding, 635 nm fluorescence, higher = more signal;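 further: composite of spot emission at 667 nm and signal to noise over triplicate slides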
[7] = tested on: Fibrinogen (Alexa647-labelled); experiment: fibrinogen binders on compound microarrays, profiling panel, artefact control for SMM control-protein annotation, biochemical, small-molecule microarray, 635/667 nm fluorescence (AID 1131); details: fibrinogen-A647 binding fluorescence, higher = more signal;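 further: z-score merges 667 nm fluorescence with per-spot signal-to-noise over triplicate slides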
[8] = target: Follistatin (Homo sapiens) (UniProt P19883); experiment: follistatin binders on small-molecule microarrays, primary screen, biochemical, small-molecule microarray, 635/667 nm fluorescence (AID 1132); details: FST binding, 635 nm fluorescence, higher = more signal
[9] = target: Fibroblast growth factor 2 (Homo sapiens) (UniProt P09038); experiment: FGF2 binders on small-molecule microarrays, primary screen, biochemical, small-molecule microarray, 635/667 nm fluorescence (AID 1133); details: small-molecule microarray binding, FGF2, fluorescence 635/667; higher = more signal
[10] = mitochondrial membrane potential change in A549 cells, profiling panel, cell-based, JC-1 fluorescence, basal, 24 h, 100 nL (AID 1138); details: higher = more signal;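 further: A549 lung adenocarcinoma cells under basal conditions with no added stimulus; test concentration not given here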
[11] = tested on: Lefty1; experiment: Lefty1 binders on small-molecule microarrays, primary screen, biochemical, small-molecule microarray, 635/667 nm fluorescence (AID 1139); details: small-molecule microarray binding, fluorescence 635/667; higher = more signal
[12] = tested on: wheat germ agglutinin (Triticum aestivum), Alexa647-labelled; experiment: wheat germ agglutinin binders on compound microarrays, profiling panel, artefact control for SMM control-protein annotation, biochemical, small-molecule microarray, 635/667 nm fluorescence (AID 1140); details: WGA-A647 binding, 635 nm fluorescence, higher = more signal;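 further: score merges 667 nm feature emission with signal to noise over triplicate slides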
[13] = tested on: Wnt5a (protein binding on small-molecule microarray); experiment: Wnt5a binders on small-molecule microarray, primary screen, biophysical, 635/667 nm fluorescence (AID 1142); details: 635 nm fluorescence, higher = more signal;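 further: fluorescence read at 667 nm with signal to noise per printed feature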
[14] = cell viability in Huh7 cells, primary screen, cytotoxicity control for HCV replication inhibitor project, CellTiter-Glo luminescence, basal, 48 h (AID 1143); details: Huh7 HCV replicon, higher = more signal, called active from +8 up or from −8 down;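 further: Huh7 hepatoma cells carrying a hepatitis C replication reporter with no stimulus; test concentration not given here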
[15] = CREB reporter modulators under forskolin, primary screen, cell-based, PC12, CRE-LacZ reporter, forskolin-stimulated (AID 1146); details: luminescence, 4.5 h, higher = more signal, called active from +8 up or from −8 down;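 further: PC12 cells with 6xCRE LacZ reporter stimulated by forskolin 10 µM; beta-galactosidase reporter signal reflecting CREB driven transcription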
[16] = target: Streptavidin (Streptomyces avidinii) (UniProt P22629); experiment: streptavidin binders on small-molecule microarray, primary screen, artefact control for SMM compound annotation, biophysical, 635/667 nm fluorescence (AID 1147); details: streptavidin binding, higher = more signal;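 further: signal reflects streptavidin binding to arrayed compounds as a control protein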
[17] = small-molecule binders of probe aInhba, primary screen, biochemical, small-molecule microarray, 635/667 nm fluorescence (AID 1148); details: higher = more signal;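 further: score merges 667nm spot fluorescence with signal-to-noise for antibody binding to printed compounds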
[18] = target: Torsin-1A (Homo sapiens) (UniProt O14656); experiment: torsin A binders from cell lysate, primary screen, small-molecule microarray, wild-type, 635/667 nm (AID 1149); details: COS7 hTOR1A-WT lysate, 635 nm fluorescence, higher = more signal
[19] = target: Torsin-1A (Homo sapiens) (UniProt O14656); experiment: small-molecule binders of mutant TOR1A in lysate, primary screen, cell lysate, small-molecule microarray, COS7 lysate, 635/667 nm fluorescence (AID 1150); details: COS7 hTOR1A mutant lysate, 635 nm fluorescence, higher = more signal;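 further: score pools 667 nm emission and signal to noise measuring lysate protein binding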
[20] = tested on: Sonic hedgehog protein (Shh); experiment: small-molecule binders of Shh protein, primary screen, biochemical, small-molecule microarray, 635/667 nm fluorescence (AID 1151); details: small-molecule microarray binding, 635 nm fluorescence; higher = more signal;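 further: Shh protein binding to compounds spotted on small-molecule microarray slides; score combines spot fluorescence intensity with signal-to-noise across triplicate slides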

SMILES | composite z-score [1] | composite z-score [2] | composite z-score [3] | composite z-score [4] | composite z-score [5] | composite z-score [6] | composite z-score [7] | composite z-score [8] | composite z-score [9] | z-score [10] | composite z-score [11] | composite z-score [12] | composite z-score [13] | z-score [14] | z-score [15] | composite z-score [16] | composite z-score [17] | composite z-score [18] | composite z-score [19] | composite z-score [20]
O=P(/N=C1/CC(c2ccc(CO)cc2)=CC(C2CC2)N1Cc1sc2ccccc2c1Cl)(Oc1ccccc1)Oc1ccccc1 (stereo not given) | 0.471 | 1.29 | 0.685 | 0.897 | 0.92 | 0.802 | 0.947 | 1.25 | 1.14 | -0.648 | 1.22 | 1.13 | 0.508 | inactive: -3.81 | inactive: -1.65 | 1.51 | 0.177 | -0.253 | 0.772 | 1.45
CN1/C(=N\P(=O)(Oc2ccccc2)Oc2ccccc2)CC(CCCO)=CC1C1CC1 (stereo not given) | 0.989 | 0.386 | -0.468 | 0.806 | -0.197 | 0.353 | 0.966 | 0.684 | 0.545 | 0.404 | -0.104 | 0.198 | 0.309 | inactive: -1.78 | inactive: -0.0649 | 1.77 | 0.228 | -0.354 | -0.175 | -0.138
O=P(/N=C1/CC(CCCO)=CC(c2ccc(CN3CCCC3)cc2)N1Cc1cc2c(cc1Br)OCO2)(Oc1ccccc1)Oc1ccccc1 (stereo not given) | 0.579 | 0.303 | -0.521 | 0.148 | 0.23 | 0.0738 | -0.166 | -0.143 | -0.0552 | -0.967 | -0.517 | 0.108 | -0.293 | inactive: -0.49 | inactive: 0.832 | 0.535 | 0.0713 | -0.0828 | 0.421 | -0.625
O=P(/N=C1/CC(CCCO)=CC(C2CC2)N1Cc1cc2c(cc1Br)OCO2)(Oc1ccccc1)Oc1ccccc1 (stereo not given) | 0.717 | 0.822 | -0.526 | 0.885 | 2.25 | 0.667 | 1 | 0.333 | -0.386 | -0.382 | -0.294 | 1.06 | -0.205 | inactive: -2.82 | inactive: 0.515 | 1.23 | -0.0695 | 1.51 | 1.44 | -0.609
O=P(/N=C1/CC(CCCO)=CC(C2CC2)N1Cc1cccc(OC(F)(F)F)c1)(Oc1ccccc1)Oc1ccccc1 (stereo not given) | -0.153 | 0.787 | -0.686 | 0.41 | -0.117 | -0.397 | 0.799 | 0.389 | -0.179 | -0.648 | 0.0693 | 0.896 | -0.281 | inactive: -1.55 | inactive: 1.02 | 0.109 | -0.0963 | 0.523 | 0.806 | 0.203
